Earlier results, collected in US8741957B2, “Alpha-aminoamide derivatives useful in the treatment of cognitive disorders” (priority 2006, dated 2014).

Tested on: models of cerebral ischemia and PD
Conditions: cited from earlier work

SMILES: Nc1nc2ccc(OC(F)(F)F)cc2s1 [riluzole]
- neuroprotection: neuroprotective
